For this assay, the target named is Trypanosoma brucei pteridine reductase 1 (TbPTR1) (Trypanosoma brucei, UniProt O76290). In words: cytochrome c-coupled kinetic absorbance assay. The class given is biochemical.

Amino acid sequences for entries named in this document (tags omitted). A change or cut given only in a name is not applied to a line headed by its entry.
UniProt O76290: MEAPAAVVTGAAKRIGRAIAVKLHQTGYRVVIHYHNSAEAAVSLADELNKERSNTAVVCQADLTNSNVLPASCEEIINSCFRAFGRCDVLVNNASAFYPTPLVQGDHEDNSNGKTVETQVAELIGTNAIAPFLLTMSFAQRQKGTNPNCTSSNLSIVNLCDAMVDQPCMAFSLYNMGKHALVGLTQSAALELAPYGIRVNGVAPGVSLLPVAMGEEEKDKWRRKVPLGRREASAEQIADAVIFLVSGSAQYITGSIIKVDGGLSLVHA

One compound from article PMC6484532 (Slas Discovery, 2019) can be followed below.

In general, IC50 refers to the midpoint of a concentration-inhibition curve. Read a low IC50 as inhibition by little substance. Take `CCc1nc(N)nc(N)c1-c1ccc(Cl)cc1` [pyrimethamine]: the IC50 worked out at 16.7 ± 5 nM.
